Assay results taken from publication PMC11822212, “High-throughput screening identifies Aurora kinase B as a critical therapeutic target for Merkel cell carcinoma” (Nature Communications, 2025).

Experiments:
MKL-1 cells (VP-MCC) = test: qHTS cell viability (CellTiter-Glo, 72 h; primary and follow-up small molecule screen)
UISO cells (VN-MCC) = test: as above
MCC26 cells (VN-MCC) = test: as above
WAGA cells (VP-MCC) = test: as above
HACAT cells = test: qHTS cell viability (CellTiter-Glo, 72 h; primary screen), control cell line
[1] = tested on: VN-MCC cell lines (MCC13, MCC26, UISO); test: qHTS cell viability, VN-MCC cell lines as a group (mean AUC, VN.MCC.avg)
[2] = tested on: MCC cell lines (WAGA, MKL-1, MKL-2, MCC13, MCC26, UISO); test: qHTS cell viability, all six MCC cell lines as a group (mean AUC, MCC.avg)
MCC13 cells (VN-MCC) = test: qHTS cell viability (CellTiter-Glo, 72 h; primary and follow-up small molecule screen)
NIH-3T3 cells = test: qHTS cell viability (CellTiter-Glo, 72 h; primary screen), control cell line
[3] = tested on: control cell lines (HACAT, HEK293T, CRL-7250, NIH-3T3); test: qHTS cell viability, control cell lines as a group (mean AUC, Control.avg); assay type: cell-based
MKL-2 cells (VP-MCC) = test: qHTS cell viability (CellTiter-Glo, 72 h; primary and follow-up small molecule screen)
[4] = tested on: VP-MCC cell lines (WAGA, MKL-1, MKL-2); test: qHTS cell viability, VP-MCC cell lines as a group (mean AUC, VP.MCC.avg)

For `COc1cc2nc(N3CCN(C(=O)C4CCCO4)CC3)nc(N)c2cc1OC` (stereo not drawn) [Terazosin hydrochloride], the MKL1_AUC (MKL-1 cells (VP-MCC)) was 422.554, the UISO_AUC (UISO cells (VN-MCC)) was 436.881 and the MCC26_AUC (MCC26 cells (VN-MCC)) was 406.196. It also gave a WAGA_AUC (WAGA cells (VP-MCC)) of 445.068, an HACAT_AUC (HACAT cells) of 474.971 and a VN-MCC_Avg_AUC [1] of 427.716. It also gave an MCC_Avg_AUC [2] of 427.348, an MCC13_AUC (MCC13 cells (VN-MCC)) of 440.072 and an NIH3T3_AUC (NIH-3T3 cells) of 481.633. For the same molecule, the Control_Avg_AUC [3] was 478.215, the MKL2_AUC (MKL-2 cells (VP-MCC)) was 413.313 and the VP-MCC_Avg_AUC [4] was 426.979.

Structures can show the parent of a compound that is named as a salt.
